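Tested at 5 concentrations; 48 h exposure; 96-well plates; endpoints linearly interpolated, else capped at highest concentration. GI50 = concentration required for 50% inhibition of growth. The concentration for full growth arrest is given as TGI.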
How the values were obtained:
Assay in all cases: DTP human tumour cell line panel, 48 h
[1] = system: HCC-2998 colon
[2] = system: HCT-116 colon
[3] = system: KM12 colon
[4] = system: SK-MEL-5 melanoma
[5] = system: SNB-75 CNS
[6] = system: SN12C renal
[7] = system: OVCAR-5 ovarian
[8] = system: NCI-H226 lung
[9] = system: PC-3 prostate
[10] = system: COLO 205 colon
[11] = system: MDA-N
[12] = system: NCI/ADR-RES ovarian
[13] = system: SF-539 CNS
[14] = system: MCF7 breast
[15] = system: DU-145 prostate
[16] = system: SK-MEL-2 melanoma
[17] = system: MDA-MB-231 breast
[18] = system: OVCAR-4 ovarian
[19] = system: NCI-H322M lung
[20] = system: RXF 393 renal
[21] = system: HS 578T breast
[22] = system: SK-OV-3 ovarian
[23] = system: RPMI-8226 leukemia
[24] = system: T-47D breast
[25] = system: CCRF-CEM leukemia
[26] = system: BT-549 breast
[27] = system: NCI-H522 lung
[28] = system: SR leukemia
[29] = system: MDA-MB-435
[30] = system: U251 CNS
[31] = system: HOP-62 NSCLC
[32] = system: MOLT-4 leukemia
[33] = system: UACC-257 melanoma
[34] = system: HCT-15 colon
[35] = system: A549 NSCLC
[36] = system: UO-31 renal
[37] = system: HL-60(TB) leukemia
[38] = system: ACHN renal
[39] = system: SF-295 CNS
[40] = system: SK-MEL-28 melanoma
[41] = system: HT29 colon
[42] = system: 786-0 renal
[43] = system: SW-620 colon
[44] = system: OVCAR-3 ovarian
[45] = system: M14 melanoma
[46] = system: SF-268 CNS
[47] = system: HOP-92 NSCLC
[48] = system: EKVX NSCLC
[49] = system: NCI-H23 lung
[50] = system: UACC-62 melanoma
[51] = system: K-562 leukemia
[52] = system: OVCAR-8 ovarian
[53] = system: IGROV1 ovarian
[54] = system: CAKI-1 renal
[55] = system: MALME-3M melanoma

O=C(OC1CN2CCC1CC2)C1(c2ccccc2)COc2ccccc21 (stereo not given)
GI50 [1]: 14.8 µM | TGI [1]: 28 µM | GI50 [2]: 19.5 µM | TGI [2]: 46.3 µM | GI50 [3]: 23.4 µM | TGI [3]: 53.5 µM | GI50 [4]: 16.3 µM | TGI [4]: 29.8 µM | GI50 [5]: 19.3 µM | TGI [5]: 59.9 µM | GI50 [6]: 31.4 µM | TGI [6]: > 100 µM | GI50 [7]: 17.2 µM | TGI [7]: 40 µM | GI50 [8]: 16.3 µM | TGI [8]: 39.8 µM | GI50 [9]: 24 µM | TGI [9]: > 100 µM | GI50 [10]: 14.7 µM | TGI [10]: 27.8 µM | GI50 [11]: 21.5 µM | TGI [11]: 74.2 µM | GI50 [12]: 27.4 µM | TGI [12]: > 100 µM | GI50 [13]: 11.6 µM | TGI [13]: 24 µM | GI50 [14]: 15.9 µM | TGI [14]: 29.9 µM | GI50 [15]: 66.4 µM | TGI [15]: > 100 µM | GI50 [16]: 16.5 µM | TGI [16]: 32.6 µM | GI50 [17]: 15 µM | TGI [17]: 36.8 µM | GI50 [18]: 31.1 µM | TGI [18]: > 100 µM | GI50 [19]: 37.5 µM | TGI [19]: > 100 µM | GI50 [20]: 13.5 µM | TGI [20]: 80.5 µM | GI50 [21]: 16.7 µM | TGI [21]: 41 µM | GI50 [22]: 48.2 µM | TGI [22]: > 100 µM | GI50 [23]: 23.6 µM | TGI [23]: 52.5 µM | GI50 [24]: 15.3 µM | TGI [24]: 36.3 µM | GI50 [25]: 19 µM | TGI [25]: 55.7 µM | GI50 [26]: 19.3 µM | TGI [26]: 59.2 µM | GI50 [27]: 19.9 µM | TGI [27]: 38.4 µM | GI50 [28]: 17.8 µM | TGI [28]: 42 µM | GI50 [29]: 20 µM | TGI [29]: 49.6 µM | GI50 [30]: 19.1 µM | TGI [30]: 49.1 µM | GI50 [31]: 17.4 µM | TGI [31]: 32.4 µM | GI50 [32]: 17.6 µM | TGI [32]: 46.2 µM | GI50 [33]: 16.9 µM | TGI [33]: 31 µM | GI50 [34]: 23.7 µM | TGI [34]: 79.6 µM | GI50 [35]: 39 µM | TGI [35]: > 100 µM | GI50 [36]: 18.8 µM | TGI [36]: 75.9 µM | GI50 [37]: 16.6 µM | TGI [37]: 33.8 µM | GI50 [38]: 18.9 µM | TGI [38]: 41.1 µM | GI50 [39]: 16.9 µM | TGI [39]: 32 µM | GI50 [40]: 18.9 µM | TGI [40]: 33.7 µM | GI50 [41]: 16.2 µM | TGI [41]: 34.7 µM | GI50 [42]: 24.2 µM | TGI [42]: > 100 µM | GI50 [43]: 15.1 µM | TGI [43]: 29.2 µM | GI50 [44]: 26.7 µM | TGI [44]: > 100 µM | GI50 [45]: 15.2 µM | TGI [45]: 28.8 µM | GI50 [46]: 34.7 µM | TGI [46]: 77.2 µM | GI50 [47]: 14.4 µM | TGI [47]: 54.7 µM | GI50 [48]: 50.4 µM | TGI [48]: > 100 µM | GI50 [49]: 41.6 µM | TGI [49]: > 100 µM | GI50 [50]: 18.9 µM | TGI [50]: 36 µM | GI50 [51]: 17.4 µM | TGI [51]: 37.3 µM | GI50 [52]: 35.1 µM | TGI [52]: > 100 µM | GI50 [53]: 30.4 µM | TGI [53]: > 100 µM | GI50 [54]: 21.5 µM | TGI [54]: 72.2 µM | GI50 [55]: 16.8 µM | TGI [55]: 31.5 µM
